Reference: publication PMC7601674 (2020)

Key:
[1] = system: primary porcine brain endothelial cells (PBEC) monolayer
[2] = system: bEnd.3 cells (mouse BBB cell line) monolayer

## FITC-dextran 40 [FITC-40]
[1]
  FITC-dextran 40 (FITC-40) paracellular permeability (Papp): 1.3 ± 0.1 × 10^−6 cm · sec^−1
  Transport to the Basal side, percentage of Apical compartment: 1.03 ± 0.17%
[2]
  Effect of serum pre-incubation on Papp (A to B and B to A): did not change transport in either direction
  FITC-40 Papp: 3.3 ± 0.4 × 10^−6 cm.sec^−1
